Test [1] relates to PBMC of healthy adult blood donors from Colombo, Sri Lanka. The test can be described thus: Ex vivo IFNγ ELISPOT, HLA-matched PBMC of Sri Lankan blood donors. It counts as cell-based, human. On the set-up: Total Response per epitope: unit not given here. The settings on record: for # donors responded: number of donors responding to the epitope.
Test [2] concerns splenic CD8+ T cells from DENV2 (S221) infected HLA transgenic IFN-α/βR−/− mice. Kind of test: IFNγ ELISPOT, CD8+ T cells of DENV2 (S221) infected HLA class I transgenic IFN-α/βR−/− mice. It counts as cell-based, mouse. The following applies: HLA B*0702 transgenic IFN-α/βR−/− mice, day 7 after DENV2 S221; IFNγ SFC/10^6 CD8+ T cells.
The subject of test [3] is PBMC from DENV seropositive HLA matched human donors. Kind of test: IFNγ ELISPOT of human PBMC restimulated 7 days with peptide and IL2. It counts as cell-based.
In test [4] the test system is splenic CD8+ T cells from DENV3 (D3S5CX) infected HLA transgenic IFN-α/βR−/− mice. Kind of test: IFNγ ELISPOT, CD8+ T cells of DENV3 (D3S5CX) infected HLA class I transgenic IFN-α/βR−/− mice. It counts as cell-based, mouse. The settings on record: HLA B*0702 transgenic IFN-α/βR−/− mice, day 7 after DENV3 D3S5CX; SFC/10^6 T cells.
Setting [5] is: ex vivo IFNγ ELISPOT, donors expressing HLA B*3501 (supertype B7).
Where [6] appears, read: restricting HLA allele and serotype as given.
[7] abbreviates: total over responding donors, restricting HLA allele and serotype as given.
The mark [8] stands for this setting: ex vivo IFNγ ELISPOT, donors expressing HLA B*0702 (supertype B7).
Setting [9] is: IFNγ ELISPOT response summed over responding donors, per epitope.
[10] abbreviates: HLA-matched PBMC, proteome-wide screen.
The mark [11] stands for this setting: HLA allele, supertype and serotype.
Where [12] appears, read: summed IFNγ ELISPOT response per epitope, HLA allele and serotype as given.

Structures are written as SMILES.

On to `CC[C@H](C)[C@H](NC(=O)[C@@H]1CCCN1C(=O)[C@@H](NC(=O)[C@H](CO)NC(=O)[C@@H](NC(=O)[C@@H]1CCCN1C(=O)[C@@H](N)Cc1ccccc1)C(C)C)[C@@H](C)CC)C(=O)N[C@H](C(=O)N[C@@H](C)C(=O)N[C@@H](C)C(=O)O)[C@@H](C)O`, for which the “T cell response [SFC]” value in test [1] (setting [5]) came out at 35 SFC. Besides, the “# donors responded” value in test [1] (setting [6]) worked out at 1. In test [1] (setting [7]), the “Total Response per epitope” value came out at 71.7.

For `CC[C@H](C)[C@H](NC(=O)[C@H](Cc1ccccc1)NC(=O)[C@H](C)NC(=O)[C@H](CCSC)NC(=O)[C@@H](NC(=O)[C@H](CC(C)C)NC(=O)[C@H](CCCCN)NC(=O)[C@H](CCSC)NC(=O)[C@@H]1CCCN1C(=O)CN)C(C)C)C(=O)O`, the “T cell response [SFC]” value in test [1] (setting [8]) is recorded as 62 SFC. In addition, the “# donors responded” value in test [1] (setting [6]) was 1. The “Total Response per epitope” value in test [1] (setting [7]) stood at 358.3.

With `CC[C@H](C)[C@H](N)C(=O)N[C@H](C(=O)N1CCC[C@H]1C(=O)N[C@@H](CCSC)C(=O)N[C@@H](CC(C)C)C(=O)N[C@@H](CCCNC(=N)N)C(=O)N[C@@H](Cc1c[nH]cn1)C(=O)N[C@H](C(=O)N[C@H](C(=O)O)[C@@H](C)CC)[C@@H](C)O)[C@@H](C)O`, in test [1] (setting [6]), the “# donors responded” value is 1. For the same compound, the “Total Response per epitope” value in test [1] (setting [7]) was 190.0.

Turning to `CC[C@H](C)[C@H](NC(=O)[C@@H](NC(=O)[C@@H]1CCCN1C(=O)[C@H](CO)NC(=O)CNC(=O)[C@H](CO)NC(=O)[C@@H](NC(=O)CNC(=O)[C@@H]1CCCN1C(=O)[C@@H](N)CCCCN)[C@@H](C)O)[C@@H](C)CC)C(=O)O`, the “# donors responded” value in test [1] (setting [6]) is 1. Further, the “Total Response per epitope” value in test [1] (setting [7]) is on record as 118.3.

With `CC[C@H](C)[C@H](NC(=O)[C@H](C)NC(=O)[C@@H]1CCCN1C(=O)[C@@H](NC(=O)[C@H](CCC(N)=O)NC(=O)[C@H](Cc1ccc(O)cc1)NC(=O)[C@H](CCCNC(=N)N)NC(=O)[C@@H](NC(=O)[C@@H]1CCCN1C(=O)[C@@H](N)CC(C)C)[C@@H](C)CC)[C@@H](C)O)C(=O)O`, the “Total Response per epitope” value in test [1] (setting [9]) turned out to be 894.3. For the same compound, in test [1] (setting [10]), the “# donors responded” value is recorded as 5.

Consider `C[C@H](NC(=O)[C@@H]1CCCN1C(=O)[C@@H](N)CC(N)=O)C(=O)N[C@@H](CCC(N)=O)C(=O)N[C@@H](CCC(=O)O)C(=O)N[C@@H](CC(=O)O)C(=O)N[C@@H](CC(=O)O)C(=O)N[C@@H](CCC(N)=O)C(=O)N[C@@H](Cc1ccc(O)cc1)C(=O)O`, for which, in test [1] (setting [9]), the “Total Response per epitope” value is reported as 176.7. In test [1] (setting [10]), the “# donors responded” value was found to be 2.

On to `CC[C@H](C)[C@H](NC(=O)[C@@H](NC(=O)[C@@H](N)CCCNC(=N)N)C(C)C)C(=O)N[C@@H](CC(=O)O)C(=O)N1CCC[C@H]1C(=O)N[C@@H](CCCNC(=N)N)C(=O)N[C@@H](CCCNC(=N)N)C(=O)N[C@@H](CS)C(=O)N[C@@H](CC(C)C)C(=O)N[C@@H](CCCCN)C(=O)O`, for which the “Total Response per epitope” value in test [1] (setting [9]) was found to be 258.3. For the same compound, the “# donors responded” value in test [1] (setting [10]) is given as 3.

Turning to `CC[C@H](C)[C@H](NC(=O)[C@@H](NC(=O)[C@@H](N)CCCNC(=N)N)C(C)C)C(=O)N[C@@H](CC(=O)O)C(=O)N1CCC[C@H]1C(=O)N[C@@H](CCCNC(=N)N)C(=O)N[C@@H](CCCNC(=N)N)C(=O)N[C@@H](CS)C(=O)N[C@@H](CCSC)C(=O)N[C@@H](CCCCN)C(=O)O`, the “Total Response per epitope” value in test [1] (setting [9]) is 480.0. For the same compound, the “T cell response [SFC]” value came to 160 SFC in test [1] (ex vivo IFNγ ELISPOT, donors expressing HLA A*0301 (supertype A3)) and 93 SFC in test [1] (ex vivo IFNγ ELISPOT, donors expressing HLA A*1101 (supertype A3)). The “# donors responded” value in test [1] (setting [10]) worked out at 6.

As for `CC(C)C[C@H](NC(=O)[C@H](Cc1ccc(O)cc1)NC(=O)[C@@H]1CCCN1C(=O)[C@@H](N)C(C)C)C(=O)NCC(=O)N[C@@H](CCCCN)C(=O)N[C@@H](CCCNC(=N)N)C(=O)N[C@@H](CCC(=O)O)C(=O)N[C@@H](CC(=O)O)C(=O)N[C@@H](CCC(N)=O)C(=O)O`, in test [1] (setting [11]), the “# donors responded” value amounted to 2. Further, the “Total Response per epitope” value in test [1] (setting [12]) is listed as 423.3.

`CC(C)C[C@H](NC(=O)[C@H](CCCCN)NC(=O)[C@@H](NC(=O)[C@H](CCCCN)NC(=O)[C@@H]1CCCN1C(=O)[C@@H](N)Cc1ccc(O)cc1)[C@@H](C)O)C(=O)N[C@H](C(=O)N[C@@H](CC(=O)O)C(=O)N[C@@H](Cc1c[nH]c2ccccc12)C(=O)N[C@@H](CC(=O)O)C(=O)O)[C@@H](C)O`: the “# donors responded” value in test [1] (setting [11]) was found to be 1. For the same compound, the “Total Response per epitope” value in test [1] (setting [12]) is listed as 110.0.

`CSCC[C@H](NC(=O)[C@H](CCC(=O)O)NC(=O)[C@H](C)NC(=O)[C@H](C)NC(=O)[C@@H](NC(=O)[C@@H](NC(=O)[C@H](CCCNC(=N)N)NC(=O)[C@@H](NC(=O)[C@@H]1CCCN1C(=O)[C@H](C)N)[C@@H](C)O)C(C)C)C(C)C)C(=O)O` [NS31700-1709]: the “T cell responses [SFC] mouse” value in test [2] is given as 1064 SFC. Besides, the “T cell responses [SFC] human” value in test [3] (B*0702 matched DENV seropositive donors, 1 μg/ml peptide 7 days, IFNγ per 10^6 PBMC) stood at 1426 SFC. Besides, in test [3] (responding B*0702 matched donors (out of 5)), the frequency in humans is 40% (2 out of 5). Moreover, the “T cell response [SFC]” value was 291 SFC in test [4]; 113 SFC in test [1] (setting [8]); 135 SFC in test [1] (setting [5]); 1623 SFC in test [1] (per epitope, ex vivo IFNγ SFC/10^6 PBMC). The “# donors responded” value in test [1] (setting [6]) is recorded as 8. For the same compound, the “# of responders” value in test [1] (responding donors, HLA allele(s)) was found to be 8. Also, the “Total Response per epitope” value in test [1] (setting [7]) was found to be 1623.3.

Source of the values: US10308689B2, “Dengue virus (DV) polypeptide sequences, T cell epitopes and methods and uses thereof” (LA JOLLA INSTITUTE FOR ALLERGY AND IMMUNOLOGY, priority 2010, dated 2019).
